The text below walks through data of ChEMBL document CHEMBL3885861, “Open TG-GATES”.

The species entered for this data set is Rattus norvegicus. Nature of the data set: Open TG-GATES - Regimen: Single. The conditions noted are these: in vivo; for LIVER: iv, tissue Liver, route intravenous injection; for TG: po, tissue Plasma, route gavage. The format is toxicity, organism-based, Sprague-Dawley. Also noted: regimen Single, gender Male, age 6 weeks.
[1] abbreviates: 0 mg/kg, 3 h, dose level Control.
Setting [2] is: 0 mg/kg, 6 h, dose level Control.
The mark [3] stands for this setting: 0 mg/kg, 9 h, dose level Control.
[4] abbreviates: 0 mg/kg, 24 h, dose level Control.

Values joined by “and” are separate entries in the source; they are usually repeats but may differ in a detail not shown here. Equal entries are not always repeated.

`CC(C)C[C@H](NC(=O)[C@H](Cc1ccccc1)NC(=O)c1cnccn1)B(O)O` [BORTEZOMIB]: the LIVER by setting is: under setting [1], 10.2 g; under setting [2], 9.9 g; under setting [3], 10 g; under setting [4], 11.2 g; (1 mg/kg, 3 h, dose level High) 11.1 g; (1 mg/kg, 9 h, dose level High) 9.4 g.

Consider `O=P1(N(CCCl)CCCl)NCCCO1` (stereo not drawn) [CYCLOPHOSPHAMIDE ANHYDROUS], for which the TG is 42.6 mg/dL and 56.6 mg/dL under setting [1]; 51.6 mg/dL and 65.2 mg/dL under setting [2]; 52 mg/dL and 39.8 mg/dL under setting [3]; 113.2 mg/dL and 99.8 mg/dL under setting [4]; 62.6 mg/dL (2 mg/kg, 3 h, dose level Low); 60 mg/dL (2 mg/kg, 6 h, dose level Low). In addition, the TG runs as follows: (2 mg/kg, 9 h, dose level Low) 57.8 mg/dL; (2 mg/kg, 24 h, dose level Low) 102.8 mg/dL; (5 mg/kg, 3 h, dose level Middle) 40.4 mg/dL; (5 mg/kg, 6 h, dose level Middle) 70.4 mg/dL; (5 mg/kg, 24 h, dose level Middle) 119 mg/dL; (15 mg/kg, 3 h, dose level High) 70.4 mg/dL. Besides, the TG reads like this: (15 mg/kg, 3 h, dose level Low) 71.4 mg/dL; (15 mg/kg, 6 h, dose level High) 54.4 mg/dL; (15 mg/kg, 6 h, dose level Low) 41.2 mg/dL; (15 mg/kg, 9 h, dose level High) 31.4 mg/dL; (15 mg/kg, 9 h, dose level Low) 38.4 mg/dL; (15 mg/kg, 24 h, dose level High) 69.8 mg/dL. The TG (15 mg/kg, 24 h, dose level Low) amounted to 83.8 mg/dL; the TG (50 mg/kg, 3 h, dose level Middle) turned out to be 78.4 mg/dL; the TG (50 mg/kg, 6 h, dose level Middle) is on record as 48.8 mg/dL; the TG (50 mg/kg, 9 h, dose level Middle) is 19.4 mg/dL; the TG (50 mg/kg, 24 h, dose level Middle) was determined as 58.8 mg/dL; the TG (150 mg/kg, 3 h, dose level High) is 44 mg/dL. Besides, the TG reads like this: (150 mg/kg, 6 h, dose level High) 28 mg/dL; (150 mg/kg, 9 h, dose level High) 31.2 mg/dL; (150 mg/kg, 24 h, dose level High) 45.4 mg/dL.
